pKi: −log10 of the molar value.
Target: JNK3 (Homo sapiens, UniProt P53779)
Assay: JNK inhibition assay (spectrophotometric coupled-enzyme assay)
Assay type: biochemical
Conditions: read-out: JNK3 Activity (Ki rating); activated JNK3 10 nM, 10 μM ATP, 30° C.
From the text: A BLAST search of the EST database using the published JNK3α1 cDNA as a query identified an EST clone (#632588) that contained the entire coding sequence for human JNK3α1. Polymerase chain reactions (PCR) using pfu polymerase (Strategene) were used to introduce restriction sites into the cDNA for cloning into the pET-15B expression vector at the NcoI and BamHI sites. The protein was expressed in E. coli. Due to the poor solubility of the expressed full-length protein (Met 1-Gln 422), an N-terminally truncated protein starting at Ser residue at position 40 (Ser 40) was produced. This truncation corresponds to Ser 2 of JNK1 and JNK2 proteins, and is preceded by a methionine (initiation) and a glycine residue. The glycine residue was added in order to introduce an NcoI site for cloning into the expression vector. In addition, systematic C-terminal truncations were performed by PCR to identify a construct that give rise to diffraction-quality crystals. One such construct encodes amino acid residues Ser40-Glu402 of JNK3α1 and is preceded by Met and Gly residues.
Five mg of JNK3 was diluted to 0.5 mg/ml in 50 mM HEPES buffer, pH 7.5, containing 100 mM NaCl, 5 mM DTT, 20 mM MgCl2 and 1 mM ATP. GST-MKK7(DD) was added at a molar ratio of 1:2.5 GST-MKK7:JNK3. After incubation for 30 minutes at 25° C., the reaction mixture was concentrated 5-fold by ultrafiltration in a Centriprep-30 (Amicon, Beverly, Mass.), diluted to 10 ml and an additional 1 mM ATP added. This procedure was repeated three times to remove ADP and replenish ATP. The final addition of ATP was 5 mM and the mixture incubated overnight at 4° C.
The activated JNK3/GST-MKK7(DD) reaction mixture was exchanged into 50 mM HEPES buffer, pH 7.5, containing 5 mM DTT and 5% glycerol (w/v) by dialysis or ultrafiltration. The reaction mixture was adjusted to 1.1 M potassium phosphate, pH 7.5, and purified by hydrophobic interaction chromatography (at 25° C.) using a Rainin Hydropore column. […] Activated JNK3 (i.e. doubly phosphorylated JNK3) was stored at −70° C. at 0.25-1 mg/ml.
Compounds were assayed for the inhibition of JNK3 by a spectrophotometric coupled-enzyme assay. In this assay, a fixed concentration of activated JNK3 (10 nM) was incubated with various concentrations of a potential inhibitor dissolved in DMSO for 10 minutes at 30° C. in a buffer containing 0.1 M HEPES buffer, pH 7.5, containing 10 mM MgCl2, 2.5 mM phosphoenolpyruvate, 200 μM NADH, 150 μg/mL pyruvate kinase, 50 μg/mL lactate dehydrogenase, and 200 μM EGF receptor peptide. The EGF receptor peptide has the sequence […] (SEQ ID NO: 3), and is a phosphoryl acceptor in the JNK3-catalyzed kinase reaction. The reaction was initiated by the addition of 10 μM ATP and the assay plate is inserted into the spectrophotometer's assay plate compartment that was maintained at 30° C. The decrease of absorbance at 340 nm was monitored as a function of time. The rate data as a function of inhibitor concentration was fitted to competitive inhibition kinetic model to determine the Ki.
The compound numbers correspond to the compound numbers in Tables 1-3.

The chains behind the UniProt entries cited, without tags or fusion partners. Residues count along the entry.
UniProt P53779, 40-402 limits assumed: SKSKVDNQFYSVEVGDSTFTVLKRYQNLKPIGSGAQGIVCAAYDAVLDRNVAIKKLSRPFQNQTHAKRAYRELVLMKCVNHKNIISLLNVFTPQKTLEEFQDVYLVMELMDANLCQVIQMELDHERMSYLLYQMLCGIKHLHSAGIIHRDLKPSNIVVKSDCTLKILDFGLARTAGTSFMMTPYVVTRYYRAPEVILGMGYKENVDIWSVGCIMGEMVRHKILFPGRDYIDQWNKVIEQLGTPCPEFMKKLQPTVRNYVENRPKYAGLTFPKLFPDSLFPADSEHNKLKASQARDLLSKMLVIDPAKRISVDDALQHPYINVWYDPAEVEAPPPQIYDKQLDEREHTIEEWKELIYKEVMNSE

Compared with `Clc1ccc(Nc2nccc(-c3cnc(C4CCCCC4)o3)n2)cc1`, `Clc1cccc(Cl)c1Cc1ncc(-c2ccnc(NC3CCCCC3)n2)[nH]1` is higher in pKi: less than 6.00 for the first, greater than 7.00 for the second.

Compared with `COCn1cc(-c2ccnc(Nc3cccc(OC)c3)n2)nc1-c1ccccc1`, `Cc1nc(-c2cccs2)sc1-c1ccnc(Nc2ccc(F)cc2)n1` is higher in pKi: less than 6.00 for the first, 6.00 to 7.00 for the second. The second binds more tightly here.

`Fc1ccc(Nc2nccc(-c3cnc(Cc4c(Cl)cccc4Cl)[nH]3)n2)cc1` gave a pKi of 6.00 to 7.00.

— patent publication US7361665B2, “Inhibitors of c-Jun N-terminal kinases (JNK) and other protein kinases” (Vertex Pharmaceuticals Incorporated, priority 2002, dated 2008)
